Test results taken from patent US6409648 (University of California, dated 2002).

Molecular target: T1, HA-Trf1 (Trf1 with a 10 aa hemagglutinin epitope at the N-terminus) (human, UniProt P54274 1-439)
T1 construct: In vitro translated (major 60 kD and minor about 40 kD products), or expressed in HT1080 cells
T1 sequence (looked up): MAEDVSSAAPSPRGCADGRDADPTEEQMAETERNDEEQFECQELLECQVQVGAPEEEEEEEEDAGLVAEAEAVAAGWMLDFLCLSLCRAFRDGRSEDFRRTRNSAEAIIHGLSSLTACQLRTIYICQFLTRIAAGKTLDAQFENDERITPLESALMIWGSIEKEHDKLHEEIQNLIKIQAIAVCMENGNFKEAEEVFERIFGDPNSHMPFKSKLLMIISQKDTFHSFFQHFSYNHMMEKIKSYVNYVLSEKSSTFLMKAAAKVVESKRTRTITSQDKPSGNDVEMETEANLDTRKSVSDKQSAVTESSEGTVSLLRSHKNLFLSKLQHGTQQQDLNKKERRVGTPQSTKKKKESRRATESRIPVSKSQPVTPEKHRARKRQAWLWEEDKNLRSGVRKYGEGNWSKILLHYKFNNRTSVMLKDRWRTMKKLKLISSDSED
Test: co-immunoprecipitation with anti-GST of in vitro translated radiolabeled protein, SDS-PAGE

B1: GST (glutathione-S-transferase) (other)
chain: MSPILGYWKIKGLVQPTRLLLEYLEEKYEEHLYERDEGDKWRNKKFELGLEFPNLPYYIDGDVKLTQSMAIIRYIADKHNMLGGCPKERAEISMLEGAVLDIRYGVSRIAYSKDFETLKVDFLSKLPEMLKMFEDRLCHKTYLNGDHVTHPDFMLYDALDVVLYMDPMCLDAFPKLVCFKKRIEAIPQIDKYLKSSKYIAWPLQGWQATFGGGDHPPK
notes: Control for the GST fusion proteins
Does B1 bind?
Result: no binding
